Data on two molecules can be found in patent EP4847503A1, “TETRAZOLE COMPOUND, PHARMACEUTICAL COMPOSITION THEREOF AND USE THEREOF” (dated 2026).

Chains of the proteins cited; added tags and fusions are not shown.
UniProt P50052, whole entry: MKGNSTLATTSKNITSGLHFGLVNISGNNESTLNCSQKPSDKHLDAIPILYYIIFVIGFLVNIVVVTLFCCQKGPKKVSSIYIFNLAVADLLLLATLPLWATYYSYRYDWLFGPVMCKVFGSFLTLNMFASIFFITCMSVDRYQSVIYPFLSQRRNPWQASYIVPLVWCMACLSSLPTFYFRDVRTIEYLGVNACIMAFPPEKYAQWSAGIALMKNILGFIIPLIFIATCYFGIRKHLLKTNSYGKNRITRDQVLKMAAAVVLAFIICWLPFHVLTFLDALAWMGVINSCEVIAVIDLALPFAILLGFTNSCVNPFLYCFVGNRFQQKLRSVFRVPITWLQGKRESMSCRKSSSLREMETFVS

Each structure is given as a SMILES string.

The nature of data set [1]: Pharmacokinetic behavior in mice. The settings on record: ICR mice; for F(%): intragastric administration 5 mg/kg vs intravenous 1 mg/kg. Here is the method:
Test Example 3 Study on the pharmacokinetic behavior of the compounds of the present invention in mice
Healthy ICR mice (SPF grade, source: Beijing Vital River Laboratory Animal Technology Co., Ltd.), 3 animals, male, weighing 18-25 g, were intravenously injected with 1 mg/kg of the compound at a dosing volume of 5 mL/kg, formulated with 5% DMSO + 10% Solutol + 85% Saline (w/v). Animals were fasted prior to the test.
Healthy ICR mice (SPF grade, source: Beijing Vital River Laboratory Animal Technology Co., Ltd.), 3 animals, male, weighing 18-25 g, were intragastrically administered with 5 mg/kg of the compound at a dosing volume of 10 mL/kg, formulated with 5% DMSO + 10% Solutol + 85% Saline (w/v). Animals were fasted prior to the test.
Blood samples (approx. 0.05 mL each) were collected via the cheek at 5 min, 15 min, 30 min, 1 h, 2 h, 4 h, 6 h, 8 h, and 24 h after intravenous administration, and at 5 min, 15 min, 30 min, 1 h, 2 h, 4 h, 6 h, 8 h, and 24 h after intragastric administration, respectively, using sodium heparin as an anticoagulant. After collection, the blood samples were placed on ice, and the plasma was separated by centrifugation within 1 hour (centrifugation conditions: 6000 g, 3 minutes, 2-8 °C). The concentration of the compound in plasma was determined by liquid chromatography-tandem mass spectrometry. Plasma samples were stored in a -80 °C freezer before analysis. Pharmacokinetic parameters were calculated using Phoenix WinNonlin 8.2.0 based on plasma concentration data at different time points.

Another data set addresses AT2 receptor (Homo sapiens, UniProt P50052). Briefly: AT2R Binding assay (Tag-lite HTRF, affinity for AT2 receptor). The settings on record: read-out: AT2R IC50; Tag-lite Angiotensin AT2 labeled Cells, 25 °C, 1 hour.
[2] abbreviates: intragastric administration 5 mg/kg.

Turning to `CC(C)Cc1cc(F)c(-c2nn[nH]n2)c(N2CCN(Cc3cccnn3)[C@@H](C)C2)c1`, in data set [1] (setting [2]), the AUClast came out at 4812 ng·h/mL, the Cmax was 4373 ng/mL and the T1/2 is 3.3 h. In data set [1], this molecule yielded a F(%) of 31.7%. In data set [1] (intravenous injection 1 mg/kg), this molecule yielded an AUClast of 3043 ng·h/mL, a CL of 5.48 mL/min/kg, a Cmax of 4817 ng/mL and a volume of distribution (Vss) of 0.212 L/kg.

In data set [1] (setting [2]), `CC(C)Cc1cc(NC2CC(F)(F)C2)c(-c2nn[nH]n2)c(N2CCN(Cc3cccnn3)[C@@H](C)C2)c1` had an AUClast of 12988 ng·h/mL, a maximum concentration (Cmax) of 10922 ng/mL and a T1/2 of 1.3 h. For the same molecule, the F(%) in data set [1] is given as 91.7%. In data set [1] (intravenous injection 1 mg/kg), this molecule gave an AUClast of 2832 ng·h/mL, a CL of 5.82 mL/min/kg, a Cmax of 4001 ng/mL and a Vss of 0.767 L/kg. The IC50 on AT2 receptor was determined as 1.9 nM.
